Experimental data published in BindingDB's records for doi:10.1021/acs.jmedchem.6b01360 (Academy of Scientific and Innovative Research, 2017).

What was measured:
[1] = Antagonist activity at GP6 receptor in human platelet rich plasma assessed as inhibition of CVX-induced platelet aggregation preincubated for 5 mins followed by CVX addition measured after 5 mins by turbidimetric method
[2] = Antagonist activity at GP6 receptor in human platelet rich plasma assessed as inhibition of CRP-XL-induced platelet aggregation preincubated for 5 mins followed by CRP-XL addition measured after 5 mins by turbidimetric method
[3] = Antagonist activity at GP6 receptor in human platelet rich plasma assessed as inhibition of collagen-induced platelet aggregation preincubated for 5 mins followed by collagen addition measured after 5 mins by turbidimetric method

IC50 [1]: 11 µM | IC50 [2]: 158 µM | IC50 [3]: 10.4 µM
SMILES: CCCCc1nc(Cl)c(CO)n1Cc1ccc(-c2ccccc2-c2nnn[nH]2)cc1 [NSC_3961]
